Yeast mating assay 2: variants of the scFv Ab-91

Target peptide (SARS-CoV-2 spike, HR2 region): PDVDLGDISGINAS

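The parent was found by panning a naive human phage display library on the peptide. The library (AAYL51) carries one to three amino acid substitutions per variant, with no insertions or deletions. AlphaSeq pools MATa yeast showing the antibodies with MATalpha yeast showing the peptide. Binding brings cells together so that they mate, and sequencing counts the barcode pairs among the diploids. Each replicate has its own calibration line, from reference interactions of the BCL2 family. Mating was done three times.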

Ab-91 is the parent antibody, in scFv form: VL, then the linker GGGGSGGGGSGGGGS, then VH. The light chain is unchanged in all variants.
VL: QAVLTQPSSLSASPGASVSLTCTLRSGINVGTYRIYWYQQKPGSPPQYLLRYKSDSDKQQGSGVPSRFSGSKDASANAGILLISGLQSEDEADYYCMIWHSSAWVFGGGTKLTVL
VH: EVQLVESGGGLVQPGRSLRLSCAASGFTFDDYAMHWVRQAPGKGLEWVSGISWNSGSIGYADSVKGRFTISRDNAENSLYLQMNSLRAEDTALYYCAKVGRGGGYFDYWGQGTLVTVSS

Substitutions are numbered in sequence along the VH above, starting at 1 (not Kabat).
All variants listed here change S52 of the VH, counted from its first residue.
The Kd shown is the geometric mean over detected replicates; a lower Kd is a better binder.
"nd" means that the variant was in the library but no mating with the target was seen in any replicate; the authors take this as a sign of poor binding, and no number exists.
In this assay the parent's reference entry averaged 72 nM; its copy inside this library read 7.5 nM.

Variant S52T/N54C/Y105K showed 48 µM (1 of 3 replicates; controls 0 of 9).
Variant S52E/S57H/G59T showed nd (0 of 3 replicates; controls 1 of 9).
Variant I51V/S52N/G102Y showed 1.8 µM (2 of 3 replicates; controls 0 of 9).
Variant S52E/K65V/G100V showed nd (0 of 3 replicates; controls 1 of 9).
Variant S52R/D62K/G100D showed nd (0 of 3 replicates; controls 4 of 9).
Variant M34F/S52V/Y105M showed 16 µM (1 of 3 replicates; controls 1 of 9).
Variant A33F/S52R/G104W showed 7.3 µM (1 of 3 replicates; controls 4 of 9).
Variant S52Q/Y60S showed 36 µM (1 of 3 replicates; controls 2 of 9).
Variant S52R/K65H/V99W showed nd (0 of 3 replicates; controls 1 of 9).
Variant I51T/S52C/D62E showed 40 µM (2 of 3 replicates; controls 3 of 9).
Variant M34K/S52Y/V99S showed nd (0 of 3 replicates; controls 0 of 9).
Variant M34G/S52P/A61H showed 8.4 µM (1 of 3 replicates; controls 1 of 9).
Variant D30M/S52G/F106A showed nd (0 of 3 replicates; controls 2 of 9).
Variant I51Y/S52K/S63G showed nd (0 of 3 replicates; controls 1 of 9).
Variant S52R/S57W/Y105S showed 10 µM (1 of 3 replicates; controls 3 of 9).
Variant S52N/R101I/D107S showed nd (0 of 3 replicates; controls 2 of 9).
Variant G26W/Y32Q/S52Y showed nd (0 of 3 replicates; controls 0 of 9).
Variant G50N/S52V showed 190 µM (1 of 3 replicates; controls 1 of 9).
Variant S52V/S63M/V99Q showed 41 µM (2 of 3 replicates; controls 3 of 9).
Variant F29V/S52D/D62G showed 110 µM (1 of 3 replicates; controls 1 of 9).
Variant D31V/Y32I/S52T showed nd (0 of 3 replicates; controls 1 of 9).
Variant I51Q/S52R showed nd (0 of 3 replicates; controls 1 of 9).
Variant F27T/H35C/S52C showed 40 µM (2 of 3 replicates; controls 1 of 9).
Variant S52P/G56M showed nd (0 of 3 replicates; controls 1 of 9).
Variant S52L/D62N/Y105G showed nd (0 of 3 replicates; controls 0 of 9).
Variant S52A/S57D/F106L showed 7.0 µM (3 of 3 replicates; controls 8 of 9).
Variant S52A/W53E/G56V showed 26 µM (1 of 3 replicates; controls 1 of 9).
Variant S52R/I58G/S63R showed nd (0 of 3 replicates; controls 1 of 9).
Variant S52I/Y60R/D62T showed nd (0 of 3 replicates; controls 0 of 9).
Variant M34P/S52W/D107Y showed 79 µM (2 of 3 replicates; controls 5 of 9).
Variant G50F/S52P/S63I showed 76 µM (2 of 3 replicates; controls 6 of 9).
Variant T28C/S52M/I58G showed nd (0 of 3 replicates; controls 1 of 9).
Variant S52F/K65E/G104R showed nd (0 of 3 replicates; controls 4 of 9).
Variant S52G/S55K showed 120 nM (3 of 3 replicates; controls 0 of 9).
Variant S52L/N54Q/A61E showed nd (0 of 3 replicates; controls 0 of 9).
Variant S52M/Y60K/D107V showed 120 µM (2 of 3 replicates; controls 3 of 9).
Variant D30N/S52R/G56L showed nd (0 of 3 replicates; controls 0 of 9).

The last 5 entries again:

changes	Kd	detected	signal with controls
S52F/K65E/G104R	nd	0 of 3	4 of 9
S52G/S55K	120 nM	3 of 3	0 of 9
S52L/N54Q/A61E	nd	0 of 3	0 of 9
S52M/Y60K/D107V	120 µM	2 of 3	3 of 9
D30N/S52R/G56L	nd	0 of 3	0 of 9

Empty control strains, which show no peptide, gave a signal in 21% of pairings with library AAYL51; the median was 34 µM and 95% of these signals were weaker than 1.8 µM. No background was subtracted. For each scFv, signals with the empty controls are counted beside the result.

From the AlphaSeq antibody data of Engelhart et al. 2022 (doi:10.1038/s41597-022-01779-4), copy in the FLAb collection.